This passage reports activation results from PubChem BioAssay AID743238 (Broad Institute, 2013).

SMILES strings stand for the structures. The list shows a part of the results, in another mix than the full data. Activity calls are given as the source filed them.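 Rule for the calls: active = mean normalized replicate activation at least 10% and every replicate at or above 10%; inconclusive = only one of the two criteria met; inactive = mean below 10% and not all replicates reach 10%.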

This experiment is described as follows: activators of inactive X chromosome reactivation, primary screen, imaging, XiGFP fibroblasts, GFP high-content imaging, set 2 (AID 743238).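 Note: 0% = median of on-plate neutral control wells and 100% = ellipticine 6 µM median.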 The note with it: XiGFP mouse fibroblasts, % GFP-positive cells imaging, 3 d; at 7.58 µM; hits give high values; cells co-treated with 5-aza-dC sensitizer; scaled so ellipticine positive control = 100%. The gist of the method:
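System: XiGFP fibroblasts, SV40-immortalized. Medium: DMEM plus 5-aza-dC sensitizer. Doses: single point. Timing: 3 d treatment, 15 min room-temperature fixation. Control set: ellipticine 6 µM.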
Consider `CN(C(=O)Cc1ccc(Cl)c(Cl)c1)[C@H]1CC[C@@]2(CCCO2)C[C@@H]1N1CCCC1`, for which the activation was inactive: 0.174%.

With `CN(C)C(=O)c1cc([N+](=O)[O-])cc2c1-c1c(cc([N+](=O)[O-])cc1[N+](=O)[O-])C2=O`, the activation is inactive: -0.0615%.

Turning to `NC(=O)Nc1ccc([As](=O)(O)O)cc1`, the activation was inactive: 0.0615%.

`O=C(O)COc1ccc([As](=O)(O)O)cc1[N+](=O)[O-]`: the activation is inactive: 0.091%.

With `Nc1ccccc1[As](=O)(O)c1ccccc1`, the activation was inactive: 0.309%.

On to `O=P(Nc1nccs1)(Oc1ccccc1)Oc1ccccc1`, for which the activation was inactive: 0.02%.

Consider `CN(C)C(=O)Oc1noc2ccccc12`, for which the activation is inactive: 0.134%.

As to `O=c1c2cc([N+](=O)[O-])ccc2[nH]c2c([N+](=O)[O-])cc([N+](=O)[O-])cc12`, the activation is inactive: 0%.

As for `Cc1ccccc1OP(=O)(Nc1ccccn1)Oc1ccccc1C`, the activation is inactive: 0.099%.

Turning to `CC(NC(=O)COC(=O)C(O)(c1ccccc1)c1ccccc1)c1ccccc1` (stereo unspecified), the activation is inactive: 0.247%.

In the case of `O=C(OC1CN2CCC1CC2)c1ccccc1` (stereo unspecified), the activation was inactive: -0.047%.

With `Cc1ccc(OP(=O)(Nc2ccccn2)Oc2ccc(C)cc2)cc1`, the activation is inactive: 0%.

Take `CC(=O)NC(SC(=S)N(CC(C)C)CC(C)C)C(Cl)(Cl)Cl` (stereo unspecified): the activation is inactive: 0.093%.

Regarding `O=P1(N(CCCl)CCCl)OCCC2CCCCN21` (stereo unspecified), the activation is inactive: -0.023%.

Consider `Cc1ccc(NP(=O)(Oc2cccc(C)c2)Oc2cccc(C)c2)nc1`, for which the activation is inactive: 0.027%.

In the case of `c1ccc(-c2nn[nH]n2)c(-c2nn[nH]n2)c1`, the activation was inactive: 0%.

As to `O=C(NC1CCS(=O)(=O)C1)NP(=S)(Oc1ccccc1)Oc1ccccc1` (stereo unspecified), the activation is inactive: -0.015%.

As for `CCNC(=S)/N=C(\N)N[N+](=O)[O-]`, the activation is inactive: 0.131%.

As to `CC(=O)Nc1ccc(Oc2c([N+](=O)[O-])cc([N+](=O)[O-])cc2[N+](=O)[O-])cc1`, the activation is inactive: -0.018%.

As for `CC(=O)Nc1ccc([As](=O)(O)O)c(O)c1`, the activation is inactive: 0.114%.

Take `C[C@@H]1C=CCP(=O)(Oc2ccccc2)O1` (stereo partly specified): the activation was inactive: -0.281%.

As to `C[C@H]1OP(=O)(Oc2ccccc2)C[C@@H]2O[C@@H]21` (stereo partly specified), the activation is inactive: 0.143%.

In the case of `Cc1ccccc1CN(C)C(=O)COC(=O)C(O)(c1ccccc1)c1ccccc1`, the activation is inactive: 0.051%.

As for `COC(=O)C1(C)COP(=O)(NCc2ccccc2)OC1` (stereo unspecified), the activation is inactive: 0.101%.

As for `N#C/C(=C\c1ccc(N(CCBr)CCBr)cc1)C(N)=O`, the activation is inactive: 0.579%.

As to `CC(=O)c1ccc(N2CC2c2ccncc2)cc1` (stereo unspecified), the activation is inactive: 0.094%.

On to `CC(C)(C)C(=O)NC(Sc1ccccc1)C(Cl)(Cl)Cl` (stereo unspecified), for which the activation is inactive: 0.0015%.

As for `CCc1cc(O)c([N+](=O)[O-])c(C)c1[N+](=O)[O-]`, the activation was inactive: 0.234%.

In the case of `CCOc1ccc(C2=NCC(CBr)S2)cc1` (stereo unspecified), the activation was inactive: 0.0275%.

In the case of `CC(C)C(=O)NC(Sc1ccccc1)C(Cl)(Cl)Cl` (stereo unspecified), the activation is inactive: -0.0455%.

Consider `Nc1ccc([As](=O)(O)c2ccc([N+](=O)[O-])cc2)cc1`, for which the activation was inactive: -0.05%.

In the case of `C(Cc1nn[nH]n1)Cc1nn[nH]n1`, the activation is inactive: -0.288%.

Regarding `C/C(N)=N\P(=O)(OCc1ccccc1)OCc1ccccc1`, the activation was inactive: 0.557%.

As for `O=[As](O)(c1ccccc1)c1ccc(O)cc1`, the activation was inactive: 0.22%.

Take `O=[N+]([O-])c1ncn(CCn2cnc([N+](=O)[O-])n2)n1`: the activation is inactive: -0.0235%.

Regarding `CC(=O)NC(SC(=S)N(C)C)C(Cl)(Cl)Cl` (stereo unspecified), the activation is inactive: 1.01%.

As for `C[C@H]1OP(=O)(Oc2ccccc2)[C@H](O)[C@H](O)[C@H]1N=[N+]=[N-]` (stereo partly specified), the activation was inactive: 0.0305%.

Take `O=P(Nc1nc2ccccc2s1)(c1ccccc1)c1ccccc1`: the activation is inactive: 0.039%.

In the case of `CN(C)C1(CNC(=O)c2ccc(Cl)c(S(N)(=O)=O)c2)CCCCC1`, the activation is inactive: 0.0085%.

Turning to `O=P(Nc1ccccn1)(c1ccc(Br)cc1)c1ccc(Br)cc1`, the activation was inactive: -0.0425%.

`Nc1ccc(CCCCOc2ccccc2)cc1`: the activation is inactive: 0.121%.

Consider `COc1ccc(N)c([N+](=O)[O-])c1[N+](=O)[O-]`, for which the activation is inactive: 0.0015%.

For `O=C(O)CNc1ccc([As](=O)(O)O)cc1`, the activation is inactive: -0.108%.

Regarding `O=[N+]([O-])c1cccc(NC2=NCC(CBr)S2)c1` (stereo unspecified), the activation was inactive: -0.104%.

Regarding `COC(=O)C1(C)COP(=O)(Nc2ccccc2)OC1` (stereo unspecified), the activation was inactive: 0.188%.

On to `O=[N+]([O-])c1ncn(CCn2ncnc2[N+](=O)[O-])n1`, for which the activation was inactive: -0.155%.

Take `CC(C)(C)C(=O)NC(Sc1ccncn1)C(Cl)(Cl)Cl` (stereo unspecified): the activation is inactive: -0.0285%.

With `O=C(Nc1cc([As](=O)(O)O)ccc1O)c1ccccc1`, the activation was inactive: -0.068%.

On to `O=P1(N(CCCl)CCCl)OCCCS1` (stereo unspecified), for which the activation was inactive: 0.084%.

As for `c1cc(-c2nn[nH]n2)ccc1-c1nn[nH]n1`, the activation was inactive: 0%.

As for `CC(C)=N/N=C(\N)N[N+](=O)[O-]`, the activation is inactive: 0%.

In the case of `CC(C)c1nc(Nc2ccccc2)n(P(=O)(N(C)C)N(C)C)n1`, the activation was inactive: -0.163%.

As for `CCN(/C(=N/P(=O)(N1CCOCC1)N1CCOCC1)N1CCOCC1)c1ccc(OC)cc1`, the activation was inactive: -0.011%.

For the compound `C[N+]1=C2C=CC=CC=C2SC12C([N+](=O)[O-])=CC([N+](=O)[O-])=C[C-]2[N+](=O)[O-]` (stereo unspecified), the activation is inactive: 1.1%.

As for `Nc1ccc([As](=O)(O)c2ccc(N)cc2)cc1`, the activation is inactive: -0.0285%.

Consider `O=[N+]([O-])c1cc([N+](=O)[O-])c(CCNc2ccccc2)c([N+](=O)[O-])c1`, for which the activation is inactive: 1.1%.

Take `Cc1ccc(NP(=O)(Oc2ccccc2)Oc2ccccc2)nc1`: the activation is inactive: -0.036%.

On to `COc1ccc(C2=NCC(CBr)S2)cc1` (stereo unspecified), for which the activation was inactive: 0%.

Regarding `O=C(NC(Sc1ccncn1)C(Cl)(Cl)Cl)c1ccccc1` (stereo unspecified), the activation is inactive: -0.0185%.

Consider `Nc1cc(N)c2nonc2c1[N+](=O)[O-]`, for which the activation is inactive: -0.0565%.

With `Clc1ccc(Cl)c(NC2=NCC(CBr)S2)c1` (stereo unspecified), the activation was inactive: 0%.

Consider `Cc1ccc(OP(=O)(Nc2nccs2)Oc2ccc(C)cc2)cc1`, for which the activation is inactive: -0.0885%.

Take `COc1ccccc1OP(=O)(Nc1ccc(C)cn1)Oc1ccccc1OC`: the activation was inactive: 0%.

Regarding `Cc1ccc(N/C(=N/P(=O)(N2CCOCC2)N2CCOCC2)N2CCOCC2)cc1`, the activation is inactive: -0.056%.

As for `CN(C(=O)Cc1ccc(Cl)c(Cl)c1)[C@H]1CCCC[C@H]1N1CCCC1`, the activation is inactive: -0.0395%.

With `NC(=O)c1cc([N+](=O)[O-])cc([N+](=O)[O-])c1N`, the activation is inactive: 0.364%.

Regarding `Nc1cccc2ccc([As](=O)(O)O)cc12`, the activation was inactive: -0.0175%.

On to `CCN(N=Nc1nonc1N)c1nonc1N`, for which the activation is inactive: -0.123%.

Take `CN(C(=O)Cc1ccc(Cl)c(Cl)c1)[C@H]1CCCC[C@@H]1N1CCCC1`: the activation is inactive: -0.005%.

Turning to `Cc1ccc(NP(=O)(Oc2ccccc2F)Oc2ccccc2F)nc1`, the activation is inactive: 0.124%.

Take `Cc1cc(SC(NC(=O)c2ccc(F)cc2)C(Cl)(Cl)Cl)ncn1` (stereo unspecified): the activation is inactive: 0.144%.

As to `CN(C)P(=O)(N(C)C)n1c(Nc2ccccc2)nnc1-c1ccccc1`, the activation was inactive: 0.191%.

Take `O=P(Nc1nc2ccc(Cl)cc2s1)(c1ccccc1)c1ccccc1`: the activation was inactive: 0.325%.

As to `CCCC1OP(N)(=O)OCC1CC` (stereo unspecified), the activation is inactive: 0.027%.

On to `O=C(O)c1ccccc1[As](=O)(O)O`, for which the activation was inactive: 0.116%.

As to `CC(=O)Nc1ccc([As](=O)(O)O)cc1`, the activation is inactive: 0.2%.
